Apparent affinities of Ab-14 variants for a coronavirus HR2 peptide

From the AlphaSeq antibody data of Li et al. 2023 (doi:10.1038/s41467-023-39022-2), copy in the FLAb collection.

Target peptide (SARS-CoV-2 spike, HR2 region): PDVDLGDISGINAS

Each scFv is VH, three GGGGS repeats, VL, as in the parent Ab-14, and differs from it in the CDRs of the light chain only.
VH: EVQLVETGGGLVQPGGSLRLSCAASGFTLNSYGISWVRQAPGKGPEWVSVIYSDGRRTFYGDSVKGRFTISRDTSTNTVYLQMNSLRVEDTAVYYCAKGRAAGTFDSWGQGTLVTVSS
VL: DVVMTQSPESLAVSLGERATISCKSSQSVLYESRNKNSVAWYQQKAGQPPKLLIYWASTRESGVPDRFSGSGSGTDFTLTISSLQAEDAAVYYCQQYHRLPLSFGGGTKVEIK

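Phage display of a naive human antibody library on the peptide gave the parent. These sequences belong to a second round, designed from the earlier measurements on random variants of the parent. Several design methods are mixed in this list. Affinity was read by AlphaSeq, a pooled yeast mating assay with surface-displayed partners. The frequency of each diploid, read from paired DNA barcodes, reflects how well the two displayed proteins bind. Scores were corrected for input abundance and mapped to Kd with protein pairs of known affinity run in the same pool. Each pool was mated in six replicate cultures.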

Each variant is given by its three light chain CDRs, as the data file delimits them; those of the parent are KSSQSVLYESRNKNSVA, WASTRES, QQYHRLPLS.
This list holds designs with at most six substitutions.
Numbers give log10(Kd / nM), so 0 is 1 nM and 3 is 1 µM. Smaller is tighter.
"nd" means that the variant was in the library but no mating with the target was seen in that replicate; the authors take this as a sign of poor binding, and no number exists.
The range of this assay differs from that of the first round, and the authors advise against merging the two.
Three control strains display no target. For all light chain designs, 4% of the pairings with them gave a signal, with a median of 2.64 and one signal in twenty below 1.59, so weak values seen in few replicates may be background.
The authors averaged sequences with at least three values out of six and counted those with two or fewer as poor binders.
A sequence that the file lists under several names has all its replicates listed entry by entry, parted by semicolons.

- KLQQSVNYESRNKNSVA, NASTRES, QQYHRLPLS = 0.57, -0.38, 0.20, 0.03, -0.21, 0.48
- KSSKSVEFESRNKNSVA, NASTRES, QQYHRLPLS = 0.66, 0.60, 0.52, 0.38, 0.37, 0.56
- KSSQSVMYESRNNNSVA, WASTRES, QQYHILPLS = nd, nd, nd, nd, nd, nd
- KSSDSYLEESRNKNSVA, EASTRES, QQYHRLPLS = -0.09, -0.15, -0.16, -0.01, -0.06, -0.02
- KLSESDLYESRNKNSVA, NASTRES, QQYHRLPLS = 0.09, 0.06, 0.09, -0.08, -0.10, 0.27
- KSSQSVLYESRNKNSVA, NASTRES, NQYHRLPLS = nd, 1.61, nd, 3.34, 1.76, 3.26
- KSSQSVLYESRNKNSVA, YASEREG, QQYHREPLS = nd, nd, nd, nd, nd, 1.92
- KLSQSVLYESRNKNSVA, NASTREK, QQYHRLPLS = -0.12, -0.36, -0.52, -0.57, -0.36, -0.09
- KQSISVLQESRNQNSVA, EASTREV, QQYHRLPLS = -0.17, -0.32, -0.06, 0.09, 0.26, 0.31
- CSSQSVLYESRNKNSVA, WASTRES, QQYHRLPLS = nd, nd, nd, nd, nd, nd
- KWEQGVLYESRNKNSVA, GASVRES, QQYHRLPLS = 0.07, -0.14, -0.17, -0.11, 0.18, -0.24
- KLSQSVLMESRNKNSVA, QASTRES, QQYHRLPLS = -0.15, -0.19, -0.42, -0.39, -0.29, -0.10; -0.07, -0.12, -0.24, -0.27, -0.25, -0.14
- KSSQSVLYESRNKNSVA, AASTRES, QQYHRLPLP = nd, 0.72, 0.70, 0.79, 0.77, 1.73
- KFSQEVLYESRNKNSVA, WASTHES, QQYFRLPLS = 2.48, 1.54, 1.26, 1.28, 1.50, 2.57
- KLSQSVLYESRMKNSVA, DASTRCS, QQYHRLPLS = -0.09, -0.29, -0.19, -0.28, -0.35, 0.11
- KLSQSVPYESRNKNSVA, NASTRES, QQYHRLPLS = -0.09, -0.20, -0.09, -0.35, -0.38, -0.14
- KLSQSVLYESRNKNNVA, GASTRES, QAYHRLPLS = 0.36, 0.55, 0.23, 0.21, 0.10, 0.53
- KHSQSVLYESRNFNSVA, WATTRES, QQYHRLPLY = nd, nd, nd, nd, nd, nd
- KSSISYLYESENKFSVA, EASQRES, QQYHRLPLS = 0.88, 0.66, 0.35, 0.56, 0.56, 1.28
- HYSQSVLYESRNKNSVA, MASTRES, QQYHRLPLS = 1.42, 0.70, 0.87, 1.23, 1.29, 1.11
- KSSQSVLYCSRNKNSVA, QASTRES, QQYHRLPLS = nd, nd, 2.29, nd, nd, 2.14
- KLSQSELYESRCKNNVA, EASQRES, QQYHRLPLS = 0.73, 0.43, 0.53, 0.61, 0.85, 0.49
- KSLISQEYESRNKNSVA, HASTRED, QQYHRLPLS = 0.08, -0.17, -0.17, -0.02, 0.02, -0.13
- KVSQSMLYESRNKNSVA, NASQRES, QQYHRLPLS = -0.08, -0.08, -0.10, -0.35, -0.20, -0.11
- KLSQSVQWESRNGNSVA, AASTRES, QQYHRLPLS = 0.27, -0.07, 0.12, -0.14, -0.07, 0.24
- KLSQSWLYESRNKNSVA, GASTREN, QQYHRLPLS = 0.58, 0.32, 0.10, 0.30, 0.10, 0.31
- KLSQADWYESRNKNSVA, EASLRES, QQYHRLPLS = -0.26, 0.28, 0.05, -0.25, 0.04, -0.17
- KSSISYLMESRNKNSVA, EASTRES, QQYHRLPLS = 0.39, 0.38, 0.16, -0.07, -0.07, 0.05
- QSEQSVLYPSRNENSVA, NASTRES, QQYHRLPLS = 0.59, 0.21, 0.21, 0.31, 0.40, 0.50
- ASSQSWLYESRNKNSVA, GASTRED, QQYHRLPLS = -0.03, 0.56, 1.15, 0.73, 1.57, -0.20
- KLSQQAEYESRNKNSVA, QASTREM, QQYHRLPLS = 0.07, -0.26, -0.14, -0.14, -0.28, 0.04
- KWSFLQLGESRNKNSVA, DASTRES, QQYHRLPLS = 0.18, 0.09, -0.10, -0.23, -0.16, 0.19
- KLSQSVPYESRNKNSVA, DASQRES, QQYHRLPLS = -0.07, -0.07, -0.15, -0.15, -0.15, 0.14
- KLEQLHLYESRNKNSVA, QASTREM, QQYHRLPLS = 1.06, 1.42, 0.52, 0.42, 0.18, 1.04
- KLQQQNLYESRNKNSVA, SASTREE, QQYHRLPLS = 0.47, 0.31, 0.24, -0.35, -0.11, 0.01
- KVSQSQLYESRNKNSVA, GASTRES, QQYHRLDLS = nd, nd, nd, nd, nd, nd
- KLSQSVLYESRNKNSVA, HASTRES, QQYHRLPLS = -0.27, 0.01, -0.29, -0.39, -0.18, 0.10; 0.82, 0.43, 0.31, 0.42, 0.25, 0.49
- KLMGSVLYESRNKNSVA, GASQREK, QQYHRLPLS = -0.27, -0.39, -0.26, -0.42, -0.29, -0.19
- KLSYSWLYESRNKNSVA, GASTRES, QQYHRLPLS = 0.06, -0.12, -0.25, -0.39, -0.08, 0.00
- KMSQSWGYESRNSNSVA, EASTRES, QDYHRLPLS = 0.93, 0.64, 0.89, 0.60, 0.72, 0.84
- KSSQSVLYQSRNKNSVA, WASTRES, QQPHRLPLS = nd, nd, nd, nd, nd, nd
- KSLQSVLYESRNKNSVA, HASTREQ, QQYHRLPLS = 2.01, 1.73, 1.29, 1.72, 1.13, 1.63
- KSQQSVMYESRNNNSVA, RASTRES, QQYHRLPLS = 1.12, 1.07, 1.06, 0.98, 1.26, 1.01
- KISQFVLYESTNKNSVA, WASTRES, QQYHRLPLS = nd, nd, nd, 1.68, nd, nd
- HSSPSGLYESRNKNSVA, NASTRES, QQYHRLPLS = -0.21, -0.35, -0.56, -0.64, -0.48, -0.22
- KSSQSWLYESRNKNSVA, WASTRES, QQYHRLHLS = nd, nd, nd, nd, nd, nd
- KSDQSVNYESENQNSVA, WASTRES, QQYHRLPLE = 2.15, 1.20, 2.60, 2.51, 1.41, 2.19
- KLSQSELYESRNKNSVA, NASMRES, QQYHRLPLS = 0.07, -0.16, 0.23, 0.13, 0.05, -0.26
- KSSQSFLYESRNFNSVA, NASTRES, QQYHRLPLS = 0.67, 0.72, 0.58, 0.53, 0.95, 1.00
- KSKDSVLYESTNKNSVA, WASTRES, QQYHRLPLS = nd, nd, nd, nd, 2.56, nd
- KSSQSVQYEDRNKNSVA, WASTRES, QQYHRLPLS = nd, nd, nd, nd, nd, nd
- QASQSFLYESRNKNSVA, GASTRES, QQYHRLPLS = -0.09, 0.15, -0.10, -0.20, -0.32, -0.07

The opening 4 entries, copied out:

| CDR-L1 | CDR-L2 | CDR-L3 | log10 Kd, replicates |
|---|---|---|---|
| KLQQSVNYESRNKNSVA | NASTRES | QQYHRLPLS | 0.57, -0.38, 0.20, 0.03, -0.21, 0.48 |
| KSSKSVEFESRNKNSVA | NASTRES | QQYHRLPLS | 0.66, 0.60, 0.52, 0.38, 0.37, 0.56 |
| KSSQSVMYESRNNNSVA | WASTRES | QQYHILPLS | nd, nd, nd, nd, nd, nd |
| KSSDSYLEESRNKNSVA | EASTRES | QQYHRLPLS | -0.09, -0.15, -0.16, -0.01, -0.06, -0.02 |